Test results from ChEMBL document CHEMBL5223102, “CDK9 inhibitors in cancer research” (RSC Med Chem, 2022).

Chains of the proteins cited; added tags and fusions are not shown.
UniProt P50750, whole entry: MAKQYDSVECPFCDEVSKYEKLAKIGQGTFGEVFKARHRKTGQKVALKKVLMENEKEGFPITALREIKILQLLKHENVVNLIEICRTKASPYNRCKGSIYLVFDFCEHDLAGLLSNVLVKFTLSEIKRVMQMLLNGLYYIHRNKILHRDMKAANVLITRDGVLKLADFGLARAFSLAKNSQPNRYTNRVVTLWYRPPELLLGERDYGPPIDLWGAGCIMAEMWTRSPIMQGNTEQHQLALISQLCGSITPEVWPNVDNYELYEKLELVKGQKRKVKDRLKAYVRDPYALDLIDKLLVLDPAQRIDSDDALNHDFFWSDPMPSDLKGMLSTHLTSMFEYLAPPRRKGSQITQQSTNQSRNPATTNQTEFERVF

How the values were obtained:
[1] = biological target: T1, Cyclin-dependent kinase 9 (Homo sapiens, UniProt P50750)
[2] = biological target: T1, Cyclin-dependent kinase 9; test: Inhibition of human CDK9 in human MV4-11 cells assessed as decrease in RNAP2 phosphorylation at Ser2 by western blot analysis; type: cell-based

How did the IC50 [1] turn out when `COc1cc(F)ccc1-c1ccnc(NC(=O)[C@H]2CCC[C@@H](NC(C)=O)C2)c1` was run?
The IC50 was under 5 nM.

What about the IC50 [2] of the same molecule?
Its IC50 is 96 nM.
